Assay [1] addresses T1, Acyl-CoA:cholesterol acyltransferase (Oryctolagus cuniculus, UniProt Q95214).
T1 sequence (Q95214 whole entry): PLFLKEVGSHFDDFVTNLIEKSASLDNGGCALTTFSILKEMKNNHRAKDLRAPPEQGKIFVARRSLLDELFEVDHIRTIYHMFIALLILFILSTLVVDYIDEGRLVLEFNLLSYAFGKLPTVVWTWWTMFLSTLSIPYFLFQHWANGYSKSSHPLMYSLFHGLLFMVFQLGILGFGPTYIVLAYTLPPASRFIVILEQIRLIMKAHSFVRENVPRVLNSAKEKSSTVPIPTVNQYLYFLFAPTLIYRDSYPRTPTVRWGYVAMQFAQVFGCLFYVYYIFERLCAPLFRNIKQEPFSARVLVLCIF
The assay can be described thus: Concentration required for the inhibition of rabbit arterial Acyl coenzyme A:cholesterol acyltransferase.

The target in assay [2] is T1, Acyl-CoA:cholesterol acyltransferase. The assay can be described thus: Concentration required for the inhibition of Cholesterol O-acyl transferase from cholesterol fed rabbit gut.
Assay [3] shares this target. The assay can be described thus: Concentration required for the inhibition of Cholesterol O-acyl transferase from cholesterol fed rabbit adrenal.
Assay [4] shares this target. The assay can be described thus: Concentration required for the inhibition of Cholesterol O-acyl transferase from cholesterol fed rabbit artery. It counts as tissue-based.
Assay [5] shares this target. The assay can be described thus: Concentration required for the inhibition of cholesterol O-acyl transferase (ACAT) from cholesterol fed rabbit liver.

Consider `Cc1cc(C)n(CCCCCSc2nc(-c3ccccc3)c(-c3ccccc3)[nH]2)n1`, for which the 50% inhibitory concentration (IC50) (in general, the concentration needed to halve the response being measured) in assay [1] amounted to 40 nM; in assay [2] it was 119 nM; in assay [3], 79 nM; in assay [4] it was 40 nM; in assay [5] it was 44 nM.

These data come from ChEMBL document CHEMBL1126412, “RP 70676: A potent systematically available inhibitor of acyl-CoA:cholesterol O-acyl transferase (ACAT)” (Bioorg Med Chem Lett, 1992).
